Patent publication US12109176B1, “Effect of glycerol on biofilm forming bacteria and fungi that changes the microbes sensitivity to pro and anti-biofilm non-toxic, non-bonded plasma amino acids and amino acid derivatives” (priority 2023, dated 2024)

Tests used:
[1] = system: fungal biofilm (C. albicans); assay: Fungal biofilm disruption assay; type: cell-based, Candida albicans
[2] = system: fungal biofilm (C. albicans); assay: Fungal biofilm inhibition assay; type: cell-based, Candida albicans
[3] = Table F, in the presence of a sufficient concentration of glycerol

`N[C@@H](CCS)C(=O)O` [Homocysteine, L-homocysteine] was tested, and the “Reduce or Inhibit F Biofilm (dots: Disruption Biofilm Assay)” value ([1]; Table D, 0.1 to 5.0%) was “● (Single dot [ie. ●] signifies little effect on the Disruption Biofilm Assay (from about 10 to less than 30%))”, the “Reduce or Inhibit F Biofilm (dots: Disruption Biofilm Assay)” value [1, 3] was “● (Single dot [ie. ●] signifies little effect on the Disruption Biofilm Assay (from about 10 to less than 30%))” and the “Reduce or Inhibit F Biofilm (squares: Inhibition Biofilm Assay)” value ([2]; Table D, 0.1 to 5.0%) was “▪ (Single square [ie. ▪] signifies little effect on the Inhibition Biofilm Assay (from about 10 to less than 30%))”. The “Reduce or Inhibit F Biofilm (squares: Inhibition Biofilm Assay)” value [2, 3] was “▪ (Single square [ie. ▪] signifies little effect on the Inhibition Biofilm Assay (from about 10 to less than 30%))”.
